Counter-ions that a name gives are not always drawn. Like-named read-outs stand apart in the source and are kept apart here.
Experiments:
σ1 receptor [1] = biological target: T1, σ1 receptor (Cavia porcellus, UniProt Q60492)
σ2 receptor = σ2 receptor (Rattus norvegicus, UniProt Q5U3Y7); assay: σ2 receptor binding assay, [3H]DTG or [3H]RHM-1; settings: for σ1/σ2 Ratio: Ki for σ1/Ki for σ2
EMT-6 cells = assay: Cytotoxicity assay (MTS) in EMT-6 cells; format: cell-based, mouse; settings: EMT-6, MTS assay
σ1 receptor [2] = biological target: T1, σ1 receptor; assay: σ1 receptor binding assay, [3H](+)-pentazocine; settings: read-out: Ki for σ1; as listed in Table 2
[3] = read-out: Ki σ2, inhibiting binding of [3H]DTG or [3H]RHM-1 to rat liver homogenates, mean ± SEM
[4] = read-out: EC50 (μM, 24 hours), 24 hours
[5] = read-out: EC50 (μM, 48 hours), 48 hours

By UniProt entry, the sequences of proteins in these tests, tags left out.
UniProt Q60492, whole entry: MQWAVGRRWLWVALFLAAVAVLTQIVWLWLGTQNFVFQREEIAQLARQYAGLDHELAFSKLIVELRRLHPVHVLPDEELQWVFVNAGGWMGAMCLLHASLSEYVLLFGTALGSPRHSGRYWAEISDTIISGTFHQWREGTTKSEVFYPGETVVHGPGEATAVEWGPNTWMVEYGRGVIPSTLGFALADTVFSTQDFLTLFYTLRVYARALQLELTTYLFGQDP
UniProt Q5U3Y7, whole entry: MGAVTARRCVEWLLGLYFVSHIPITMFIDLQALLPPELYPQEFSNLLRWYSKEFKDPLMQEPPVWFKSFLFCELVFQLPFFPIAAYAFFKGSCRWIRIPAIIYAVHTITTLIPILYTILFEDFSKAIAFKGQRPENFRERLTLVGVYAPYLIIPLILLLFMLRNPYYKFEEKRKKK

## COc1ccc(C)cc1NC(=O)O[C@H]1C[C@H]2CCC[C@@H](C1)N2CCCCCCNC(=O)CCCCCNC(=O)CCCC[C@@H]1SC[C@@H]2NC(=O)N[C@@H]21
σ1 receptor [1]
  Ki: 10.4 µM
σ2 receptor
  σ1/σ2 Ratio: 7.67
σ2 receptor; [3]
  Ki: 1.35 µM

## COc1ccc(C)cc1NC(=O)O[C@H]1C[C@H]2CCC[C@@H](C1)N2CCCCCCCCCCNC(=O)CCCC[C@@H]1SC[C@@H]2NC(=O)N[C@@H]21
σ1 receptor [1]
  Ki: 10.2 µM
σ2 receptor
  σ1/σ2 Ratio: 147
σ2 receptor; [3]
  Ki: 0.0697 µM

## COc1ccc(C)cc1NC(=O)OC1CC2CCCC(C1)N2CCc1ccccc1 (stereo not drawn)
EMT-6 cells; [4]
  EC50: 51 µM
EMT-6 cells; [5]
  EC50: 31.5 µM

## COc1ccc(C)cc1NC(=O)O[C@H]1C[C@H]2CCC[C@@H](C1)N2CCCCCCCCCCNC(=O)CCCCCNC(=O)CCCC[C@@H]1SC[C@@H]2NC(=O)N[C@@H]21
σ1 receptor [1]
  Ki: 3.82 µM
σ2 receptor
  σ1/σ2 Ratio: 5.21
σ2 receptor; [3]
  Ki: 0.733 µM

## COc1ccc(C)cc1NC(=O)OC1CC2CCCC(C1)N2CCCCN (stereo not drawn) [Compound 1a, N-(9-(4-Aminobutyl)-9-azabicyclo[3.3.1]nonan-3α-yl)-N-(2-methoxy-5-methyl-phenyl)carbamate hydrochloride]
σ1 receptor [2]
  Ki: 6.29 µM
EMT-6 cells; [4]
  EC50: 30 µM
EMT-6 cells; [5]
  EC50: 18.5 µM
σ2 receptor; read-out: Ki for σ2, as listed in Table 2
  Ki: 0.0283 µM

— patent US8168650B2, “Therapeutic uses of bicyclic ligands of sigma 2 receptor” (priority 2006, dated 2012)
